Source: PubChem BioAssay (Broad Institute)
UUG fidelity: modulators of yeast start codon fidelity, primary screen, whole organism, S. cerevisiae, single point, plate reader | AID 602363, 2012 | S. cerevisiae UUG-firefly luciferase reporter, luminescence/redox ratio | activity score, % at 18.7 µM | hit rate 0.13% among 350,000;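 active = replicate mean at a twofold rise or more, about +100% in these data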;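 also: firefly luciferase made from a UUG start codon reports start codon fidelity; reporter light over untreated wells divided by growth signal over untreated wells; some hits fall short of that in this replicate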
CFTR F508del cor: F508del CFTR correction, initial screen, CFBE line, single point | CFBE cells, YFP halide quenching; stimulated with forskolin plus potentiator P3; % fluorescence drop versus neutral controls | activity (quench increase), % at 7.58 µM | 350,000 tested, 0.36% active | AID 720511, 2013;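 active means mean added fluorescence quench of at least 8% versus neutral control, with both replicates also reaching 8%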;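 further: cells transiently co-express mutant CFTR-F508del with the halide-sensitive YFP; corrector assay measuring rescue of mutant channel to the surface after 24 h compound exposure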
miR-122 sensor: miR-122 Renilla sensor signal increase in Huh7, primary screen, miR-122 inhibitor project, cell-based, single point, plate reader; Huh7 miR-122 Renilla luciferase sensor, 48 h; neutral wells = 0, positive control = 100; activation (reporter increase), % at 12.5 µM; 340,000 tested, 0.3% active; AID 602342, 2012;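 active means mean replicate activation score at least 90 and every replicate individually at or above 90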;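 further: higher luciferase means less miR-122 activity so hits act as miR-122 inhibitors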
LGR2 inh: inhibitors of bursicon-induced LGR2 CRE-luciferase signal, primary screen, cell-based, HEK293, CRE-luciferase reporter, bursicon stimulation; Drosophila bursicon receptor LGR2 (rickets); AID 720647, 2013; 380,000 tested, 0.35% active; bursicon-stimulated, 4 h; inhibition, % at 9.99 µM;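 active means drop in luminescence signal, shown as inhibition above about 50% in the replicate tests, limit read from the data, passing the limit was not always enough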;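 further: agonist challenge used bursicon conditioned medium at about half maximal strength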
PglD DTNB: C. jejuni PglD acetyltransferase inhibitors, primary screen, biochemical, DTNB colorimetric, single point. AID 602405, 2012. UDP-N-acetylbacillosamine N-acetyltransferase PglD (Campylobacter jejuni). purified PglD enzyme, DTNB colorimetric CoA detection. inhibition, % at 12.5 µM. 360,000 tested, 0.098% active; in the data active means inhibition above about 16%, passing the limit was not always enough
EWS-Fli block: EWS/Fli-driven NR0B1 reporter inhibitors, primary screen, A673 cells, NR0B1 luciferase, luminescence, MLPCN library; viability-normalised; inhibition, % at 12.6 µM; 350,000 tested, 0.67% active;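 active means mean inhibition of at least 50% after viability correction, with every replicate also passing that limit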;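 further: firefly luciferase signal divided by Alamar Blue viability fluorescence both relative to DMSO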
* = called active by the depositor; . = no result; ! = not active in a repeat; [ ] = dose if it differs, or a comment. In the library only some 1.3% were active in any assay of this set; here they are far more common.

Keys: A = UUG fidelity; B = CFTR F508del cor; C = miR-122 sensor; D = LGR2 inh; E = PglD DTNB; F = EWS-Fli block
COc1cccc(N2CCN(C(=O)c3ccc(CS(=O)c4ccc(C)cc4)o3)CC2)c1 (configuration not stated)
  A = -14; B = 9.6*; C = 58; D = -6; E = -7; F = 49
COc1cccc(N2CCN(C(=O)c3ccc(CS(=O)c4ccc(Cl)cc4)o3)CC2)c1 (configuration not stated)
  A = -17; B = 8.4*; C = .; D = -20; E = 0; F = 56*
Cc1cccc(C(=O)N(Cc2ccco2)c2c(N)n(Cc3ccccc3)c(=O)[nH]c2=O)c1
  A = -4; B = 28*; C = -10; D = -6; E = -1; F = -2
CCNc1nc(N)nc(Oc2ccc(OCCOc3ccccc3)nn2)n1
  A = -4; B = .; C = 151*; D = .; E = 3; F = .
CCNc1nc(N)nc(Oc2ccc(OCc3ccccc3)nn2)n1
  A = -9; B = 5; C = -7; D = -7; E = 0; F = -2
COc1cc(C(=O)Nc2nc(-c3cccs3)cs2)cc(OC)c1OC
  A = -5; B = -1; C = -8; D = 59*; E = 4; F = -57
COc1ccc(-c2ccc(C3[C@@H]4CN(C(=O)Nc5cccc(F)c5)C[C@H]3N4)cc2)cc1 (some centres not stated)
  A = .; B = 5; C = .; D = -22; E = .; F = 9
CC(=O)N1Cc2cc(C(=O)NCC(F)(F)F)nc(-c3cccc(-c4cccnc4)c3)c2[C@@H]1CCO
  A = .; B = 8.9*!; C = .; D = 5; E = .; F = 59*
CCNC(=O)c1cc2c(c(-c3cccc(-c4cccnc4)c3)n1)[C@H](CCO)N(S(C)(=O)=O)C2
  A = .; B = 2; C = .; D = 1; E = .; F = 55*
COc1ccc(CN(C)C[C@H]2OCCCC[C@H](C)Oc3ccc(NC(=O)Nc4cccc5ccccc45)cc3C(=O)N([C@H](C)CO)C[C@H]2C)cc1
  A = 39; B = -1; C = -2[16.7 µM]; D = -1; E = -1; F = 70*

Entries of single compounds as entered above. Screens in order: UUG fidelity | CFTR F508del cor | miR-122 sensor | LGR2 inh | PglD DTNB | EWS-Fli block
COc1ccc(-c2ccc(C3[C@@H]4CN(C(=O)Nc5cccc(F)c5)C[C@H]3N4)cc2)cc1 (some centres not stated) across the screens: . | 5 | . | -22 | . | 9
COc1ccc(CN(C)C[C@H]2OCCCC[C@H](C)Oc3ccc(NC(=O)Nc4cccc5ccccc45)cc3C(=O)N([C@H](C)CO)C[C@H]2C)cc1 across the screens: 39 | -1 | -2[16.7 µM] | -1 | -1 | 70*

(listing goes on)
Keys: A = UUG fidelity; B = CFTR F508del cor; C = miR-122 sensor; D = LGR2 inh; E = PglD DTNB; F = EWS-Fli block
C[C@H](CO)N1C[C@H](C)[C@H](CN(C)Cc2ccc(C(F)(F)F)cc2)OCCCC[C@H](C)Oc2ccc(NC(=O)Nc3ccccc3)cc2C1=O
  A = 8; B = -2; C = -6[16.7 µM]; D = 3; E = 0; F = 15
COc1ccc(CN(C)C[C@H]2OCCCC[C@H](C)Oc3ccc(NC(=O)Nc4ccc(C(F)(F)F)cc4)cc3C(=O)N([C@@H](C)CO)C[C@H]2C)cc1
  A = 3; B = 3; C = -18[16.7 µM]; D = .; E = 4; F = 67*
COc1ccc(CN(C)C[C@H]2OCCCC[C@@H](C)Oc3ccc(NC(=O)Nc4ccc(C(F)(F)F)cc4)cc3C(=O)N([C@H](C)CO)C[C@H]2C)cc1
  A = 5; B = 8; C = -23[16.7 µM]; D = .; E = -2; F = 56*
C[C@@H]1CCCCO[C@H](CN(C)Cc2ccc(C(F)(F)F)cc2)[C@@H](C)CN([C@@H](C)CO)C(=O)c2cc(NC(=O)Nc3ccccc3)ccc2O1
  A = 7; B = -1; C = -12[16.7 µM]; D = 14; E = 1; F = 69*
COc1ccc(C(C#N)c2cnccn2)cc1OC (configuration not stated)
  A = -10; B = 2; C = -3; D = 8; E = -3; F = 1
COc1ccc(CN(C)C[C@H]2OCCCC[C@H](C)Oc3ccc(NC(=O)Nc4ccc(F)cc4)cc3C(=O)N([C@H](C)CO)C[C@@H]2C)cc1
  A = 5; B = -2; C = 0[16.7 µM]; D = -4; E = 15; F = -5
COc1ccc(CN(C)C[C@H]2OCCCC[C@@H](C)Oc3ccc(NC(=O)Nc4ccc(F)cc4)cc3C(=O)N([C@H](C)CO)C[C@H]2C)cc1
  A = 12; B = -1; C = 2[16.7 µM]; D = -19; E = 6; F = 67*
COc1ccc(NC(=O)Nc2ccc3c(c2)C(=O)N([C@@H](C)CO)C[C@@H](C)[C@@H](CN(C)Cc2ccc(C(F)(F)F)cc2)OCCCC[C@H](C)O3)cc1
  A = 10; B = 0; C = -3[16.7 µM]; D = 8; E = -3; F = -1
COc1ccc(CN(C)C[C@@H]2OCCCC[C@H](C)Oc3ccc(NC(=O)Nc4ccc(C(F)(F)F)cc4)cc3C(=O)N([C@@H](C)CO)C[C@@H]2C)cc1
  A = 0; B = 8; C = -24[16.7 µM]; D = .; E = 1; F = 83*
COc1ccc(CNC(=O)c2n[nH]c3ccccc23)cc1OC
  A = -7; B = -2; C = -3; D = -8; E = 4; F = -5
O=C(O)c1cc(-c2ccccc2Cl)n(-c2ccccc2)n1
  A = -13; B = 0; C = -6; D = -8; E = -3; F = -4
